# Reference: PubChem BioAssay AID1515 (The Scripps Research Institute Molecular Screening Center, 2009)
# By UniProt entry, the sequences of proteins in these tests, tags left out.
# UniProt O75884, whole entry: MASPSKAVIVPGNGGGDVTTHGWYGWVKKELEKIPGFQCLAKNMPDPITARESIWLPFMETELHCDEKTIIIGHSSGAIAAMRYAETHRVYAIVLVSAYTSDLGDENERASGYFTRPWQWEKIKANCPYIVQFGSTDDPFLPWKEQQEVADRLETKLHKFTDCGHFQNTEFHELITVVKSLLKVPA
# The list shows a part of the results, in another mix than the full data. Calls of active or inactive are those of the source.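 How the source made its calls: active means inhibition above the campaign mean of all tested compounds plus 3 SD (cut at about 14% in these data); inactive means the rest.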
# Biological target: Serine hydrolase RBBP9 (Homo sapiens) (UniProt O75884)
# Experiment: human RBBP9 inhibitors, primary screen, biochemical, fluorescence polarization, FP-Rh probe, HTS (AID 1515);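 further: plate controls were DMSO wells with RBBP9 for no effect and wells lacking RBBP9 protein for full effect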
# Conditions: recombinant RBBP9, FP-Rh probe fluorescence polarization; at 7.94 µM; stronger effect = higher value
row,SMILES,inhibition
1,N#Cc1ccc(C(=O)NCC2(N3CCCCC3)CCCCC2)cc1,inactive: -2.41%
2,c1ccc(CN2CCC(Nc3ccccc3)CC2)cc1,inactive: -6.1%
3,COc1ccc(C(=O)NCC2(N3CCOCC3)CCCCC2)cc1OC,inactive: 0.73%
4,N/C(=N\O)c1c(N)no[n+]1[O-],inactive: -0.76%
5,O=C(OC1CN2CCC1CC2)C1c2ccccc2C=Cc2ccccc21 (centres undefined),inactive: -14.4%
6,CCOc1ncccc1C(=O)NCC1(N2CCOCC2)CCCCC1,inactive: -8.28%
7,CC(C)(C)OC(=O)N1CCC(Nc2ccccc2)CC1,inactive: -2.33%
8,COc1cc(OC)cc(C(=O)NCC2(N3CCOCC3)CCCCC2)c1,inactive: -9.02%
9,CCC(CO)(C(=O)OC1CN2CCC1CC2)c1ccccc1 (centres undefined),inactive: -2.6%
10,CCCOc1ccc(C)cc1CN(CCCl)CCCl,inactive: -0.3%
11,CCN1CCC(Nc2cccc(F)c2)CC1,inactive: 0.74%
12,CN(C)c1ccc(C(=O)NCC2(N3CCCCC3)CCCCC2)cc1,inactive: -3.87%
13,CCOc1ccc(C)cc1CN(CCCl)CCCl,inactive: 8.29%
14,COc1ccc(NC2CCN(CCc3ccccc3)CC2)c(OC)c1,inactive: -4.84%
15,Cc1ccc(OCC(C)C)c(CN(CCCl)CCCl)c1,inactive: 2.9%
16,COc1ccc(C(=O)NCC2(N3CCCCC3)CCCCC2)c(OC)c1OC,inactive: 5.96%
17,O=C(NCC1(N2CCOCC2)CCCCC1)c1cc2ccccc2o1,inactive: -3.37%
18,O=C(OC1CN2CCC1CC2)C1c2ccccc2Oc2ccccc21 (centres undefined),inactive: 2.38%
19,N#CC1(Nc2ccccc2)CCN(Cc2ccccc2)CC1,inactive: -4%
20,CCOC(=O)N1CCC(Nc2ccc(OC)cc2)CC1,inactive: -2.64%
21,CC(C)c1ccc(NC2CCN(C(=O)OC(C)(C)C)CC2)cc1,inactive: -1.03%
22,CN(C)c1cccc(C(=O)NCC2(N3CCCCC3)CCCCC2)c1,inactive: 3.81%
23,COc1ccc(CN(CCCl)CCCl)cc1Cl,inactive: 8.18%
24,CN1CCC(Nc2cccc(F)c2)CC1,inactive: 1.9%
25,N#CC1(Nc2ccccc2)CCN(CCc2ccccc2)CC1,inactive: -7.01%
26,O=C(NCC1(N2CCCCC2)CCCCC1)c1cccc([N+](=O)[O-])c1,inactive: -4.67%
27,O=C(NCC1(N2CCOCC2)CCCCC1)c1cc(=O)[nH]c2ccccc12,inactive: -0.73%
28,COc1ccc(NC2CCN(C(=O)OC(C)(C)C)CC2)cc1,inactive: 12.9%
29,CN1CCN(CCOC(=O)C(O)(c2ccccc2)c2ccccc2)CC1,inactive: 0.9%
